Here are results for 21 molecules from patent publication US8975249B2, “Heterocyclic compounds and uses thereof” (Celgene Avilomics Research, Inc., priority 2010, dated 2015).

One assay concerns the target EGFR T790M/L858R (Homo sapiens (Human), UniProt P00533, L858R/T790M). Put plainly: Omnia biochemical assay, EGFR-T790M/L858R active enzyme.
Details: not given
Take `C=CC(=O)Nc1cccc(Oc2nc(Nc3ccc(N4CCN(C(=O)OC)CC4)cc3OC)ncc2C(F)(F)F)c1` [Compound I-20, methyl 4-(4-(4-(3-acrylamidophenoxy)-5-(trifluoromethyl)pyrimidin-2-ylamino)-3-methoxyphenyl)piperazine-1-carboxylate]: the “Ratio WT/mutant” value is recorded as >5.

Staying with this assay, now noted: [EGFR-T790M/L858R]=2.5 nM, [ATP]=20 uM, 30 min pre-incubation.
For the molecule `C=CC(=O)Nc1cccc(Oc2nc(Nc3ccc(N4CCOCC4)cc3OC(F)F)ncc2Cl)c1` [Compound I-36, N-(3-(5-chloro-2-(2-(difluoromethoxy)-4-morpholinophenylamino)pyrimidin-4-yloxy)phenyl)acrylamide], the IC50 is < 1 nM.

Turning to `C=CC(=O)Nc1cccc(Oc2nc(Nc3ccc(N4CCN(C(C)=O)CC4)cc3OC)ncc2C(F)(F)F)c1` [Compound I-10, N-(3-(2-(4-(4-acetylpiperazin-1-yl)-2-methoxyphenylamino)-5-(trifluoromethyl)pyrimidin-4-yloxy)phenyl)acrylamide], the half-inhibitory concentration (IC50) was in the range of 1 to 10 nM.

Consider `C=CC(=O)Nc1cccc(Oc2nc(Nc3ccc(N4CCN(C(=O)CO)CC4)cc3OC)ncc2C(F)(F)F)c1` [Compound I-11, N-(3-(2-(4-(4-(2-hydroxyacetyl)piperazin-1-yl)-2-methoxyphenylamino)-5-(trifluoromethyl)pyrimidin-4-yloxy)phenyl)acrylamide], for which the IC50 was < 1 nM.

Take `C=CC(=O)Nc1cccc(Nc2nc(Nc3ccc(N4CCN(C(=O)CC)CC4)cc3OC)ncc2C(F)(F)F)c1` [Compound I-35, N-(3-(2-(2-methoxy-4-(4-propionylpiperazin-1-yl)phenylamino)-5-(trifluoromethyl)pyrimidin-4-ylamino)phenyl)acrylamide]: the IC50 was < 1 nM.

In the case of `C=CC(=O)Nc1cccc(Oc2nc(Nc3ccc(N4CCN(C(=O)NC)CC4)cc3OC)ncc2C(F)(F)F)c1` [Compound I-21, 4-(4-(4-(3-acrylamidophenoxy)-5-(trifluoromethyl)pyrimidin-2-ylamino)-3-methoxyphenyl)-N-methylpiperazine-1-carboxamide], the IC50 was < 1 nM.

On to `C=CC(=O)Nc1cccc(Oc2nc(Nc3ccc(N4CCN(C(C)=O)CC4)cc3OC)ncc2Cl)c1` [Compound I-9, N-(3-(2-(4-(4-acetylpiperazin-1-yl)-2-methoxyphenylamino)-5-chloropyrimidin-4-yloxy)phenyl)acrylamide], for which the IC50 was < 1 nM.

For the molecule `C=CC(=O)Nc1cccc(Nc2nc(Nc3ccc(N4CCCOCC4)cc3OC)ncc2C(F)(F)F)c1` [Compound I-38, N-(3-(2-(2-methoxy-4-(1,4-oxazepan-4-yl)phenylamino)-5-(trifluoromethyl)pyrimidin-4-ylamino)phenyl)acrylamide], the IC50 is < 1 nM.

For the molecule `C=CC(=O)Nc1cccc(Oc2nc(Nc3ccc(N4CCN(C(=O)CO)CC4)cc3OC)ncc2Cl)c1` [Compound I-3, N-(3-(5-chloro-2-(4-(4-(2-hydroxyacetyl)piperazin-1-yl)-2-methoxyphenylamino)pyrimidin-4-yloxy)phenyl)acrylamide], the IC50 was < 1 nM.

Regarding `C=CC(=O)Nc1cccc(Oc2nc(Nc3ccc(N4CCCN(C(=O)OC(C)(C)C)CC4)cc3OC)ncc2C(F)(F)F)c1` [Compound I-39, tert-butyl 4-(4-(4-(3-acrylamidophenoxy)-5-(trifluoromethyl)pyrimidin-2-ylamino)-3-methoxyphenyl)-1,4-diazepane-1-carboxylate], the IC50 was 10 to 30 nM.

Consider `C=CC(=O)Nc1cccc(Oc2nc(Nc3ccc(N4CCCOCC4)cc3OC)ncc2Cl)c1` [Compound I-37, N-(3-(5-chloro-2-(2-methoxy-4-(1,4-oxazepan-4-yl)phenylamino)pyrimidin-4-yloxy)phenyl)acrylamide], for which the IC50 was 1 to 10 nM.

In turn, `C=CC(=O)Nc1cccc(Oc2nc(Nc3ccc(N4CCN(C(=O)CC(C)(C)C)CC4)cc3OC)ncc2Cl)c1` [Compound I-23, N-(3-(5-chloro-2-(4-(4-(3,3-dimethylbutanoyl)piperazin-1-yl)-2-methoxyphenylamino)pyrimidin-4-yloxy)phenyl)acrylamide] returned a half-inhibitory concentration (IC50) of 1 to 10 nM.

`C=CC(=O)Nc1cccc(Nc2nc(Nc3ccc(N4CCCN(C(=O)C(F)(F)F)CC4)cc3OC)ncc2C(F)(F)F)c1` [Compound I-19, N-(3-(2-(2-methoxy-4-(4-(2,2,2-trifluoroacetyl)-1,4-diazepan-1-yl)phenylamino)-5-(trifluoromethyl)pyrimidin-4-ylamino)phenyl)acrylamide] displayed an IC50 of 1 to 10 nM.

On to `C=CC(=O)Nc1cccc(Nc2nc(Nc3ccc(N4CCN(C(=O)C(C)(C)C)CC4)cc3OC)ncc2C(F)(F)F)c1` [Compound I-34, N-(3-(2-(2-methoxy-4-(4-pivaloylpiperazin-1-yl)phenylamino)-5-(trifluoromethyl)pyrimidin-4-ylamino)phenyl)acrylamide], for which the IC50 was < 1 nM.

In the case of `C=CC(=O)Nc1cccc(Nc2nc(Nc3ccc(N4CCCN(C(=O)OC(C)(C)C)CC4)cc3OC)ncc2C(F)(F)F)c1` [Compound I-44, tert-butyl 4-(4-(4-(3-acrylamidophenylamino)-5-(trifluoromethyl)pyrimidin-2-ylamino)-3-methoxyphenyl)-1,4-diazepane-1-carboxylate], the half-maximal inhibitory concentration (IC50) fell in the range of 1 to 10 nM.

Consider `C=CC(=O)Nc1cccc(Oc2nc(Nc3ccc(N4CCN(C(=O)OC(C)(C)C)CC4)cc3OC)ncc2Cl)c1` [Compound I-46, tert-butyl 4-(4-(4-(3-acrylamidophenoxy)-5-chloropyrimidin-2-ylamino)-3-methoxyphenyl)piperazine-1-carboxylate], for which the IC50 is < 1 nM.

On to `C=CC(=O)Nc1cccc(Nc2nc(Nc3ccc(N4CCS(=O)(=O)CC4)cc3OC)ncc2C(F)(F)F)c1` [Compound I-49, N-(3-(2-(2-methoxy-4,4-dioxo-4-thiomorpholinophenylamino)-5-(trifluoromethyl)pyrimidin-4-ylamino)phenyl)acrylamide], for which the IC50 was < 1 nM.

`C=CC(=O)Nc1cccc(Nc2nc(Nc3ccc(N4CCOCC4)cc3OC(F)F)ncc2C(F)(F)F)c1` [Compound I-14, N-(3-(2-(2-(difluoromethoxy)-4-morpholinophenylamino)-5-(trifluoromethyl)pyrimidin-4-ylamino)phenyl)acrylamide]: the IC50 is < 1 nM.

The molecule `C=CC(=O)Nc1cccc(Oc2nc(Nc3ccc(N4CCCN(C(=O)OC(C)(C)C)CC4)cc3OC)ncc2Cl)c1` [Compound I-43, tert-butyl 4-(4-(4-(3-acrylamidophenoxy)-5-chloropyrimidin-2-ylamino)-3-methoxyphenyl)-1,4-diazepane-1-carboxylate] came in with an IC50 of 1 to 10 nM.

The molecule `C=CC(=O)Nc1cccc(Oc2nc(Nc3ccc(N4CCN(C(=O)OC)CC4)cc3OC)ncc2C(F)(F)F)c1` [Compound I-20, methyl 4-(4-(4-(3-acrylamidophenoxy)-5-(trifluoromethyl)pyrimidin-2-ylamino)-3-methoxyphenyl)piperazine-1-carboxylate] registered an IC50 of 1 to 10 nM.

Turning to `C=CC(=O)Nc1cccc(Nc2nc(Nc3ccc(N4CCN(C(C)=O)CC4)cc3OC(F)(F)F)ncc2C(F)(F)F)c1` [Compound I-33, N-(3-(2-(4-(4-acetylpiperazin-1-yl)-2-(trifluoromethoxy)phenylamino)-5-(trifluoromethyl)pyrimidin-4-ylamino)phenyl)acrylamide], the IC50 is < 1 nM.

With `C=CC(=O)Nc1cccc(Oc2nc(Nc3ccc(N4CCN(S(N)(=O)=O)CC4)cc3OC)ncc2C(F)(F)F)c1` [Compound I-27, N-(3-(2-(2-methoxy-4-(4-sulfamoylpiperazin-1-yl)phenylamino)-5-(trifluoromethyl)pyrimidin-4-yloxy)phenyl)acrylamide], the IC50 fell in the range of 1 to 10 nM.

In general, IC50 refers to the concentration that gives 50% inhibition.
